The values that follow are results of earlier work, collected in patent US6428805B1, “Powdery nasal compositions” (Teijin Limited, priority 1998, dated 2002).

As for insulin, the “maximum blood concentration relative to injection administration of the same unit” value (10 units of insulin, nasal, rabbits) is reported as “about 20%”. Besides, the maximum blood concentration (10 units of insulin, nasal, rabbits, Example 4 of JP Kokoku 62-42888) was at most 200 μU/ml. Also, the “absorption ratio determined from AUC” value (nasal versus injection, estimated) was at most 10%.
